{"sequences": {"note": "Protein sequences, listed by entry. Tags and fused reporters are not part of them. Lines headed by an entry give the natural chain unless they say otherwise; changes in a name come on top.", "UniProt Q8N808": "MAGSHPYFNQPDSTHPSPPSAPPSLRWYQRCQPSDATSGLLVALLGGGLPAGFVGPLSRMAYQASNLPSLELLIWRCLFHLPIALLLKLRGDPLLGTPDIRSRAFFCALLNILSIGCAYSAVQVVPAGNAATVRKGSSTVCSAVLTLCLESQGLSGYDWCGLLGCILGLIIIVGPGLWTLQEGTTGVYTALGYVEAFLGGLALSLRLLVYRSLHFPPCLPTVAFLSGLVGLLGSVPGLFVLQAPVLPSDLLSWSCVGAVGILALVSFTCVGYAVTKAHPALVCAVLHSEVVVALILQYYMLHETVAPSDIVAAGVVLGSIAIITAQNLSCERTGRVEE"}, "source": "paper PMC11406361", "about": "“Several orphan solute carriers functionally identified as organic cation transporters: Substrates specificity compared with known cation transporters” (The Journal of Biological Chemistry, 2024)", "target": "SLC35G3 (Homo sapiens, UniProt Q8N808)", "assay": "Uptake ratio screen, SLC35G3-overexpressing HEK293 over empty vector cells", "assay_type": "cell-based", "set-up": "by amplifying the entire gene-of-interest within the HEK293 genome via a long-range PCR"}
{"smiles": "CNCCC(Oc1ccc(C(F)(F)F)cc1)c1ccccc1", "note": "(stereo not shown) [Fluoxetine]", "values": [{"measurement": "Uptake data for SLC35G3, mean value (fold-increase over empty vector control)", "value": 1.37}]}
